The record followed here is article PMC12254266.

Amino acid sequences for entries named in this document (tags omitted).
UniProt O14842, whole entry: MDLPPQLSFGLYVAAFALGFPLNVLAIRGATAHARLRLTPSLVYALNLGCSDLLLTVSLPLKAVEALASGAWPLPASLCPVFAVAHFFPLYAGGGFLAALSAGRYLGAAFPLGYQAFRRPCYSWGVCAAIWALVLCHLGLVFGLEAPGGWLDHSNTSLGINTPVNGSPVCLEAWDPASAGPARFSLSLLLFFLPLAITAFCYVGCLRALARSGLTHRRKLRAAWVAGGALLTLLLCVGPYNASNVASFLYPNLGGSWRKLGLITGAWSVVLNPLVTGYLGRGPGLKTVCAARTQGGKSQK

Molecules are shown by their SMILES.

The target in test [1] is T1, FFA1-Nluc (Homo sapiens, UniProt O14842). As to the kind of experiment: DISCo-BRET. In kind it is binding. Background: BRET reads energy transfer from a luciferase to a nearby fluorophore.
For test [2], the target named is Nluc-FFA1 (Homo sapiens, UniProt O14842). As to the kind of experiment: NanoBRET binding.
Test [3] deals with T1, FFA1-Nluc. As to the kind of experiment: Ca2+ mobilisation antagonism of FFA1 agonists. In kind it is cell-based. Particulars: in words. (In general: Calcium assays in cells follow changes in intracellular calcium, usually with a dye or a luminescent sensor.)

For `CCCN1C(=O)c2ccccc2[C@@H](C(=O)O)[C@@H]1c1ccc(Oc2ccccc2)cc1` (relative stereo), the “pIC50 DISCo-BRET NBD/Nluc” value in test [1] (100 nM TUG-2591 and 316 nM TUG-2597, NC = No competition) was 6.2±0.2. Also, the “pIC50 DISCo-BRET SulfoCy5/NBD” value in test [1] (100 nM TUG-2591 and 316 nM TUG-2597, one site model, NC = No competition) is listed as 6.0±0.1. In test [1] (percentage of binding obtained in the absence of competing ligand), the “'bottom' of the IC50 curve, DISCo-BRET NBD/Nluc” value is reported as 3.8%. For the same compound, in test [1] (using Kd TUG-2591 57 nM), the “pKi DISCo-BRET SulfoCy5/NBD” value is on record as 6.4±0.1. For the same compound, the “'bottom' of the IC50 curve fit, Nano-BRET TUG-2884” value in test [2] (percentage of binding in the absence of competing ligand, tracer TUG-2884 2 μM) is listed as -15%. Further, the “pIC50 Nano-BRET TUG-2884” value in test [2] (tracer TUG-2884 2 μM, NBD/Nluc, NC = No competition) worked out at 5.8±0.06. The “pKi Nano-BRET TUG-2884” value in test [2] (using Kd TUG-2884 940 nM) came out at 6.3±0.06. Moreover, the “antagonism of site one agonist (TUG-905) Ca2+ response” value in test [3] was “only competitive with site one”.
